# According to patent US9487559B2, “Compositions comprising multivalent synthetic ligands of surface nucleolin and glycosaminoglycans” (ELRO PHARMA SARL, priority 2010, dated 2016):
# Key:
# [1] = tested on: HUVEC cells
# [2] = tested on: chicken embryo chorioallantoic membrane; test: In vivo angiogenesis, chicken embryo chorioallantoic membrane (CAM) assay; details: 20 μM N6L alone or pre-incubated with heparin or CS-C, 1 cm2 CAM area, 48 h, vs water control
# Protocol: FIG. 21. […] An 1 cm2 area of chicken embryo CAM, restricted by a silicon ring, was incubated with 20 μM N6L or nanoparticles composed by 20 μM N6L and […] heparin or Cs-C. 48 h later, total vessels length was quantified. We observed that N6L had no effect on the in vivo angiogenesis, in contrast to the heparin or Cs-C composed nanoparticles that inhibited the development of new blood vessels (50% and 70%, respectively). Results are mean values±SD from at least 3 independent experiments.
# To analyse the effects of N6L pre-incubated with sulfated glycoaminoglycans on in vivo angiogenesis using chicken embryo chorioallantoic membrane assay.
# Leghorn fertilized eggs were incubated for 4 days at 37° C. A window was then opened on the eggshell, exposing the CAM. The window was covered with sterile tape, and the eggs were returned to the incubator. On day 9 of embryo development, […] of distilled water as a control or containing either 20 μM N6L, […] or 10 μg/ml CS-C alone or 20 μM N6L pre-incubated with either 10 μg/ml heparin or 10 μg/ml CS-C inside a silicone ring to restricted the area which is 1 cm^2. […] Photographs were taken and the total length of the vessels was quantified using PC image-analysis software (Scion Corporation, USA). […]
# [3] = tested on: PANC-1 (Human pancreatic carcinoma) cells; type: cell-based
# [4] = tested on: U87-MG (Human glioblastoma-astrocytoma) cells; type: cell-based
# [5] = 20 μM N6L alone or with 10 μg/ml heparin or CS-C, treated the first day only, MTT at end of fourth day
structure (smiles),measurement,setting,value
CC(=O)N[C@@H](CCCCNC(=O)[C@H](CCCNC(=N)N)NC(=O)[C@@H]1CCCN1C[C@@H](N)CCCCN)C(=O)NC(C)(C)C(=O)NCC(=O)N[C@@H](CCCCNC(=O)[C@H](CCCNC(=N)N)NC(=O)[C@@H]1CCCN1C[C@@H](N)CCCCN)C(=O)NC(C)(C)C(=O)NCC(=O)N[C@@H](CCCCNC(=O)[C@H](CCCNC(=N)N)NC(=O)[C@@H]1CCCN1C[C@@H](N)CCCCN)C(=O)NC(C)(C)C(=O)NCC(=O)N[C@@H](CCCCNC(=O)[C@H](CCCNC(=N)N)NC(=O)[C@@H]1CCCN1C[C@@H](N)CCCCN)C(=O)NC(C)(C)C(=O)NCC(=O)N[C@@H](CCCCNC(=O)[C@H](CCCNC(=N)N)NC(=O)[C@@H]1CCCN1C[C@@H](N)CCCCN)C(=O)NC(C)(C)C(=O)NCC(=O)N[C@@H](CCCCNC(=O)[C@H](CCCNC(=N)N)NC(=O)[C@@H]1CCCN1C[C@@H](N)CCCCN)C(=O)NC(C)(C)C(=O)NCC(N)=O [Nucant N6L],IC50,[1],10 µM
same,N6L concentration giving maximal effect on HUVEC proliferation,"[1]; N6L alone or pre-incubated with 10 μg/ml GAG, treated every day for 4 days",50 µM
same,inhibition of the development of new blood vessels (total vessels length),[2],no significant effect
same,IC50,[3],15 µM
same,inhibition of PANC1 proliferation after four days of treatment (4 treatments),[3]; 20 μM,50%
same,inhibition of PANC1 proliferation after one day of treatment,[3]; [5],did not exert any inhibitory effect
same,inhibition of U87-MG proliferation after four days of treatment (4 treatments),[4]; 20 μM,50%
same,inhibition of U87-MG proliferation after one day of treatment,[4]; [5],slight inhibitory effect
